What was measured:
rat nNOS = molecular target: T1, rat nNOS (Rattus norvegicus, UniProt P29476); test: NOS enzyme assay (hemoglobin capture), nNOS; type: biochemical
T1 construct: made in house; host or cells: E. coli

[1] = molecular target: T2, nNOS in 293T cells overexpressing nNOS (293T/nNOS cells) (Rattus norvegicus, UniProt P29476); test: Cell-based assay: inhibition of nNOS in 293T/nNOS cells, nitrite by Griess reagent; conditions: A23187 (5 μM), eight hours, nitrite in culture media
T2 construct: expressed in transfected cells; host or cells: 293T cells (293T/nNOS)
Procedure: FIG. 4. Inhibition of nNOS in 293T cells overexpressing nNOS (293T/nNOS cells). 293T/nNOS cells were treated with A23187 (5 μM) and various concentrations of inhibitors 2 and 3g-3k. After eight hours, the amount of nitrite in culture media was quantified with the Griess reagent. Each data point is an average of two independent experiments.

Ki (rat nNOS; rat nNOS, Ki calculated from directly measured IC50 values) [nM] | IC50 [1] [nM] | activity/potency for nNOS in words (rat nNOS; purified enzyme assay) | n/e (rat nNOS; ratio of Ki (eNOS) to Ki (nNOS), Tables 1-3) | n/i (rat nNOS; ratio of Ki (iNOS) to Ki (nNOS), Tables 1-3) | SMILES
28 | 5000 |  |  |  | Cc1cc(N)nc(CCc2cncc(CCc3cc(C)cc(N)n3)c2)c1 [3j, 6,6′-(2,2′-(Pyridine-3,5-diyl)bis(ethane-2,1-diyl))bis(4-methylpyridin-2-amine)]
 |  | highly potent | 28.8 | 13.9 | Cc1cc(N)nc(CCc2cccc(CCc3cc(C)cc(N)n3)c2)c1 [3g, 6,6′-(2,2′-(1,3-Phenylene)bis(ethane-2,1-diyl))bis(4-methylpyridin-2-amine)]

— US8932842B2, “Aminopyridine dimer compounds, compositions and related methods for neuronal nitric oxide synthase inhibition” (Northwestern University, priority 2009, dated 2015)
